Measurements: US20260049071A1, “PROTEIN TYROSINE KINASE INHIBITOR AND MEDICAL USE THEREOF” (BEYANG THERAPEUTICS CO., LTD., priority 2022, published 2026)

Sequences of proteins named here, by UniProt entry; tags and fusion partners are left off. Residues count along the entry.
UniProt P35968, 790-1356 limits assumed: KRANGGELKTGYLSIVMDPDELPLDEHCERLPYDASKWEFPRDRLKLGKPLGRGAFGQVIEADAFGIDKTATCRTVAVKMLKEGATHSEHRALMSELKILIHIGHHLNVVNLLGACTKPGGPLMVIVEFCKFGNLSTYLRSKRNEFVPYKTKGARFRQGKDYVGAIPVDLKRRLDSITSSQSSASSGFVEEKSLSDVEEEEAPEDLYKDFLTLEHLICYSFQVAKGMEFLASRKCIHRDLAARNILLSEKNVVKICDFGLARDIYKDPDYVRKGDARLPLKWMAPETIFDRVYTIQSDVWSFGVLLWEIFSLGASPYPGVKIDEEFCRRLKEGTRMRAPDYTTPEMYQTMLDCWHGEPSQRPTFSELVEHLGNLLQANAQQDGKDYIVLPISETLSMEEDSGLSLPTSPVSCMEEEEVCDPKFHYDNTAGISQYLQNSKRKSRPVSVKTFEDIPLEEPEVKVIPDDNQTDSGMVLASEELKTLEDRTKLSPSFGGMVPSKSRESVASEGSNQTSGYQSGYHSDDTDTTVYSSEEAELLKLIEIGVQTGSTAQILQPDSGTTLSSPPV
UniProt P35968, 20-1356 limits assumed: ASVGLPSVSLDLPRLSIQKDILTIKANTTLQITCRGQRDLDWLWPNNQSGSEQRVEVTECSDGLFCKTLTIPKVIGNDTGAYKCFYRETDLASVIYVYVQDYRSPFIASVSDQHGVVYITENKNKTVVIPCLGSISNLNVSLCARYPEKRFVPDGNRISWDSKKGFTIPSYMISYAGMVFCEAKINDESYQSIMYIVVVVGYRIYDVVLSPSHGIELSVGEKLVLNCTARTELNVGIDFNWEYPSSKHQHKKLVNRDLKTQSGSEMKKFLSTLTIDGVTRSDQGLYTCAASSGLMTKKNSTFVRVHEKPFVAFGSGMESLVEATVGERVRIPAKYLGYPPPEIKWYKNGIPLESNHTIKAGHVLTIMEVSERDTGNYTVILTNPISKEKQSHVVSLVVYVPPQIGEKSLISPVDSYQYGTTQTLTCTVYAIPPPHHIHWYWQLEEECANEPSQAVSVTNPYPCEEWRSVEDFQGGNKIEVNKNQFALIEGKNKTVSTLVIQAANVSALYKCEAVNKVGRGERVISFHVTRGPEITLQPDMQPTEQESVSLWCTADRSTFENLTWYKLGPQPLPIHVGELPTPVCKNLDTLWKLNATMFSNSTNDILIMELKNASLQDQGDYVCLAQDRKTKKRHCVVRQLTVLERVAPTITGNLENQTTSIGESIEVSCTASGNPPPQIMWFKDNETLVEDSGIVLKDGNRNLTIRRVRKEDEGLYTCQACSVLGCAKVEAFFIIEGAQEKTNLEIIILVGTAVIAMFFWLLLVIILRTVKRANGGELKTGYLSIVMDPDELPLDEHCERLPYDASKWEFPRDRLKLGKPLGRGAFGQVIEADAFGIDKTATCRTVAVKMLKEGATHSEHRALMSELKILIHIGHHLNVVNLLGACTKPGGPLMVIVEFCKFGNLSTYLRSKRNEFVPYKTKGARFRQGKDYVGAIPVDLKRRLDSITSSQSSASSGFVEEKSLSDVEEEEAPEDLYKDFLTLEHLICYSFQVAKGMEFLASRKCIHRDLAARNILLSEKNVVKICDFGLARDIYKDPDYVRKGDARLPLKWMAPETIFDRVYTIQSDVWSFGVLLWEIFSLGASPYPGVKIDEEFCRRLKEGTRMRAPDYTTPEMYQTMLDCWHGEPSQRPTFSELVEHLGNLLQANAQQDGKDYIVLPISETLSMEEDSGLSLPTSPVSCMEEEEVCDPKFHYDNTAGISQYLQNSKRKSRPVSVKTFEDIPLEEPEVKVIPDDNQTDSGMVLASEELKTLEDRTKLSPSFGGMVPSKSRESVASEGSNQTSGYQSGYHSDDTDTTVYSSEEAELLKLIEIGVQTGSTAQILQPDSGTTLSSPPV
UniProt P00533, 25-1210 limits assumed: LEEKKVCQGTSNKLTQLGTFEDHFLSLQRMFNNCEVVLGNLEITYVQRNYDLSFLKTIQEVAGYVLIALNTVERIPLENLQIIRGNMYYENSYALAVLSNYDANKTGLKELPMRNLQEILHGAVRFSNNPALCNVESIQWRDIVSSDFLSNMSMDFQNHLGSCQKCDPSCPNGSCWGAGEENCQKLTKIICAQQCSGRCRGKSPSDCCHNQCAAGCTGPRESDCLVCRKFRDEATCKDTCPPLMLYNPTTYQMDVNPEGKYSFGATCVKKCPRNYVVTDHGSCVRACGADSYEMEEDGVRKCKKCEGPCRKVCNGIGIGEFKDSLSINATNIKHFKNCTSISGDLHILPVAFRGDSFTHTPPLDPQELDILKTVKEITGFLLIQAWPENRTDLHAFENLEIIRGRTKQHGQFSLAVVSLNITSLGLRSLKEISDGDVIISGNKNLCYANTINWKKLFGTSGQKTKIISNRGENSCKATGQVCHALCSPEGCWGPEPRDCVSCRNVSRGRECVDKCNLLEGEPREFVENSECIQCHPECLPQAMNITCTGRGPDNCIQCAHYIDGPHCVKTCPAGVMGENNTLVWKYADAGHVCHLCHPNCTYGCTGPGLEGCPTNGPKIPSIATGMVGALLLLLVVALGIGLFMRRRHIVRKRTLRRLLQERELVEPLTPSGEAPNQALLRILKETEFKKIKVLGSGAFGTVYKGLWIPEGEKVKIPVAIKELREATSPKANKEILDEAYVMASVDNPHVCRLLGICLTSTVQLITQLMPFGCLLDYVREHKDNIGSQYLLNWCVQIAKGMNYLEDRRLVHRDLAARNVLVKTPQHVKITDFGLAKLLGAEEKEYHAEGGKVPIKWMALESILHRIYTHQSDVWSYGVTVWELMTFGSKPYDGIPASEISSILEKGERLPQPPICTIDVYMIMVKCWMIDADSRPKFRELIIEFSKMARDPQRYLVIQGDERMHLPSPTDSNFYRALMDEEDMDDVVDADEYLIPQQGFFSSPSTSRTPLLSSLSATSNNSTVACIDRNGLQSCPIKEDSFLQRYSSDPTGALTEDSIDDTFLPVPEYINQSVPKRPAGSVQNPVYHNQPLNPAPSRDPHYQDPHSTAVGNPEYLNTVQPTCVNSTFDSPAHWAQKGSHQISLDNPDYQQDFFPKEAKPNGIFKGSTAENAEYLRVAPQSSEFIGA
UniProt P17948, 27-1338 limits assumed: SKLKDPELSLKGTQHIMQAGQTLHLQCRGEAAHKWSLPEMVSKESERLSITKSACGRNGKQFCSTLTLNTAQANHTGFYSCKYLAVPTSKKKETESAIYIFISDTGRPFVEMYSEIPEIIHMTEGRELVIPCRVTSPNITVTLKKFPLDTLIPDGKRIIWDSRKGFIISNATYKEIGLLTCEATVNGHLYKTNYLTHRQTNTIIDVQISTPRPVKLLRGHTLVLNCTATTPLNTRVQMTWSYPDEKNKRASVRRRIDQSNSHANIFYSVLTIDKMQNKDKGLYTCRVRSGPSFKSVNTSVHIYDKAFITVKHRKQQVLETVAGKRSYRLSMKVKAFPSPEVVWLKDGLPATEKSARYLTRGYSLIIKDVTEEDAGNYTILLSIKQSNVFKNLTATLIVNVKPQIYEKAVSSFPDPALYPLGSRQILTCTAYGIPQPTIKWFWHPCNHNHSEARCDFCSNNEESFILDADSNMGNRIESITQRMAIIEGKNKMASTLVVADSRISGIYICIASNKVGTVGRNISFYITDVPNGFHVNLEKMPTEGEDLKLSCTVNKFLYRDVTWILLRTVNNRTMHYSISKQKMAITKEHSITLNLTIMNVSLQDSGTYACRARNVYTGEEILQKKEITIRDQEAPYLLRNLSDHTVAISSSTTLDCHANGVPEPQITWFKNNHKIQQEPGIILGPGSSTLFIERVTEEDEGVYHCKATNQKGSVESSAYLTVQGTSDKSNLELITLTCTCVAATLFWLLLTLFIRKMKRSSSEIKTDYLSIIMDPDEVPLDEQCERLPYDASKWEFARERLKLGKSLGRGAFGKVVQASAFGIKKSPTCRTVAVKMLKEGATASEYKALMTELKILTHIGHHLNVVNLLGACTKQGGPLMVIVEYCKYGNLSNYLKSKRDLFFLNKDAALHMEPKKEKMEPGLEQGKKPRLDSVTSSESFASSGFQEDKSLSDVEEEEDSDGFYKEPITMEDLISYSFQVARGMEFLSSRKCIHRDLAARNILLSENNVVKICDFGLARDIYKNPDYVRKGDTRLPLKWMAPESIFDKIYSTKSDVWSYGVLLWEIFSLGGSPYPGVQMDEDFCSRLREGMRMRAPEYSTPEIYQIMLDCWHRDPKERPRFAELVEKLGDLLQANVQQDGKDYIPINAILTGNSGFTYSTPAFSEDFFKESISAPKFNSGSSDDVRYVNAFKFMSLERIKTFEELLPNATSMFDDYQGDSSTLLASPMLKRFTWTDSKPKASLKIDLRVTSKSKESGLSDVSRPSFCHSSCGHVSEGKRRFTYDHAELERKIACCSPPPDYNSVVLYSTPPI
UniProt P35916, 25-1363 limits assumed: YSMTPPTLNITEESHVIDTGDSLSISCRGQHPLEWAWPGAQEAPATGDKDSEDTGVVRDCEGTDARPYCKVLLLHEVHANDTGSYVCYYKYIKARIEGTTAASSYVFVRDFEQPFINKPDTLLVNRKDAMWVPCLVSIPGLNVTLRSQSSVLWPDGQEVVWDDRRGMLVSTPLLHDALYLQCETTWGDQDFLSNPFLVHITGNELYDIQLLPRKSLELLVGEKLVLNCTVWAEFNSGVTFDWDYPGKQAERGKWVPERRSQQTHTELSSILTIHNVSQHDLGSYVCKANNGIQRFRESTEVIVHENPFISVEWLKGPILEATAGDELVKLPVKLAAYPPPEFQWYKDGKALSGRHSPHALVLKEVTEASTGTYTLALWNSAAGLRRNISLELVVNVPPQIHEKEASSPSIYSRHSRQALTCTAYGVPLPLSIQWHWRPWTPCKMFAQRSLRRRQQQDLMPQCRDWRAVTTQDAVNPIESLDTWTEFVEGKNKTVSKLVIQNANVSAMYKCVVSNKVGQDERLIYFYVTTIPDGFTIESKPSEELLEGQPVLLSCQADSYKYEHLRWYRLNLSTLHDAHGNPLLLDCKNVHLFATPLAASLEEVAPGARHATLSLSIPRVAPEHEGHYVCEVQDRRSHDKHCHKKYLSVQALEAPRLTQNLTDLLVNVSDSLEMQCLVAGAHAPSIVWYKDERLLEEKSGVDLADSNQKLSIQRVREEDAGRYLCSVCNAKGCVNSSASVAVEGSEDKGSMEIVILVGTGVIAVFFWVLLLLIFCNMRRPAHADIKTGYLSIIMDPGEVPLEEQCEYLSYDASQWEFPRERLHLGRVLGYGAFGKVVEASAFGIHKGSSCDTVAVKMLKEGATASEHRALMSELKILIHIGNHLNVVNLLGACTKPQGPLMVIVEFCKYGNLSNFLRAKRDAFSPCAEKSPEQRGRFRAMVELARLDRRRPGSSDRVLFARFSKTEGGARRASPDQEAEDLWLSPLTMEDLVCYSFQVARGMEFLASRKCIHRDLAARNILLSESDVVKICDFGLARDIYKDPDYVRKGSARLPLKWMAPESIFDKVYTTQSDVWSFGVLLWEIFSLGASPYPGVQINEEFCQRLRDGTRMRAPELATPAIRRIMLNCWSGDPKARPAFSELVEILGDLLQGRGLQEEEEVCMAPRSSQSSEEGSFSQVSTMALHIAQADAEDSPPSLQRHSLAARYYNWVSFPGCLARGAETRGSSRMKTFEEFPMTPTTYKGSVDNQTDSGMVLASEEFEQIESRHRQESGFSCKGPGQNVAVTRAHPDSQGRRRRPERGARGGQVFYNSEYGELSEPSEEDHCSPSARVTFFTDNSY

Assays:
[1] = molecular target: KDR (VEGFR2) (Homo sapiens (Human), UniProt P35968); experiment: Kinase inhibition, Mobility Shift Assay (VEGFR2); details: read-out: IC50 (nM) for VEGFR2
[2] = molecular target: EGFR (Homo sapiens (Human), UniProt P00533); experiment: Kinase inhibition, Mobility Shift Assay (EGFR); details: read-out: IC50 (nM) for EGFR
[3] = molecular target: FLT1 (VEGFR1) (Homo sapiens (Human), UniProt P17948); experiment: Kinase inhibition, Mobility Shift Assay (VEGFR1); details: read-out: IC50 (nM) for VEGFR1
[4] = molecular target: FLT4 (VEGFR3) (Homo sapiens (Human), UniProt P35916); experiment: Kinase inhibition, Mobility Shift Assay (VEGFR3); details: read-out: IC50 (nM) for VEGFR3
[5] = Binding capacity of compounds to melanin; details: 1 mg/mL melanin suspension in PBS pH 7.4, 2 μM compound, 2 h at 37° C.
[6] = molecular target: VEGFR2 autophosphorylation (pVEGFR2) in HUVEC cells (Homo sapiens (Human), UniProt P35968); experiment: Inhibition of VEGF-induced VEGFR2 autophosphorylation in HUVEC cells (ELISA); details: read-out: IC50 (nM) for pVEGFR2, 50 ng/ml human VEGF, compound 1 h
[7] = Thermodynamic solubility assay; assay type: physicochemical; details: room temperature, shaking 8 h, buffers pH 2.0, 6.5, 7.4 in method, pH of the tabulated value not given

Row | SMILES | IC50 [1] [nM] | IC50 [2] [nM] | IC50 [3] [nM] | IC50 [4] [nM] | Fu % (percentage of free drug, not bound to melanin) [5] | IC50 [6] [nM] | Solubility [7] [µg/mL]
1 | CCNC(=O)c1ccccc1Sc1ccc2c(/C=C/c3cnn(CCCN4CCCC4)c3)n[nH]c2c1 | < 1 | 6000 to 60000 |  |  |  |  | 
2 | CCN(CC)Cc1ccc(/C=C/c2n[nH]c3cc(Sc4c(F)cccc4C(=O)NC4CC4)ccc23)nc1 | 1 to 10 | 6000 to 60000 |  |  |  |  | 
3 | O=C(O)c1ccccc1Sc1ccn2c(/C=C/c3ccccn3)ncc2c1 | > 100 | < 600 | > 100 | > 100 | C (C indicates above 5%) |  | 
4 | CCNC(=O)c1cc(F)ccc1Sc1ccc2c(/C=C/c3ccc(CN(CC)CC)cn3)n[nH]c2c1 | 1 to 10 | 6000 to 60000 |  |  | C (C indicates above 5%) | < 1 | 546.0 (≈ 1080 µM)
5 | CCN(CC)CCc1ccc(/C=C/c2n[nH]c3cc(Sc4ccccc4C(=O)NC4CC4)ccc23)nc1 | < 1 | 6000 to 60000 |  |  | B (B indicates from 1% to 5%) | < 1 | 
6 | CNC(=O)c1ccccc1Sc1ccc2c(cnn2-c2ccc(OCCN3CCCC3)cn2)c1 | > 100 | > 60000 | > 100 | > 100 |  |  | 

≈ marks a conversion by molar mass, not a printed value.
